The record followed here is ChEMBL document CHEMBL4616705, “Computer-Aided Fragment Growing Strategies to Design Dual Inhibitors of Soluble Epoxide Hydrolase and LTA4 Hydrolase” (ACS Med Chem Lett, 2020).

Chains of the proteins cited; added tags and fusions are not shown.
UniProt P34913, whole entry: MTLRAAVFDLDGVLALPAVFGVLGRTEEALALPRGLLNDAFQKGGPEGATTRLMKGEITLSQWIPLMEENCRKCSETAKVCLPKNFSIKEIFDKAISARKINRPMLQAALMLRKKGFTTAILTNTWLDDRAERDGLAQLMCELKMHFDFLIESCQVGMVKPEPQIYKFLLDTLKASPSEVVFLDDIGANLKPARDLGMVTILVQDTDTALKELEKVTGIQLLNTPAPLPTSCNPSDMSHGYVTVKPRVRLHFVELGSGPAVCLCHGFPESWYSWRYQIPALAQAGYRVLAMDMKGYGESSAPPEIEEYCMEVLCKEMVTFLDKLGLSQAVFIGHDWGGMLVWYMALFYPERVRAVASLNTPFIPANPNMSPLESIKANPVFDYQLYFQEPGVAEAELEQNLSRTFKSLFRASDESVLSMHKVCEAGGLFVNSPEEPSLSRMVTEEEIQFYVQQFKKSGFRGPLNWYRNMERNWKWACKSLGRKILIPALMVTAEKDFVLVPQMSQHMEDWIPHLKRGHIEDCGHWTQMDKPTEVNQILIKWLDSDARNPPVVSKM

The target in the test is Bifunctional epoxide hydrolase 2 (Homo sapiens, UniProt P34913). The test is described as follows: Inhibition of recombinant human full length sEH (1 to 555 residues) expressed in Escherichia coli BL21 DE3 cells assessed as reduction in 6-methoxynaphthaldehyde formation using PHOME as substrate at 10 uM incubated for 45 mins followed by substrate addition and measured for 45 mins by fluorescence based assay relative to control.

By inhibition is commonly meant how much of the control response was suppressed.

SMILES strings stand for the structures.

In the case of `O=C(CCc1ccc(OCc2ccccc2)cc1)NCC1CCN(CCc2ccccc2)C1` (stereo unspecified), the inhibition is 4%.
